This is an account of results in ChEMBL document CHEMBL4627384, “l-Thyroxin and the Nonclassical Thyroid Hormone TETRAC Are Potent Activators of PPARγ” (J Med Chem, 2020).

Protein sequences, listed by entry. Tags and fused reporters are not part of them. Lines headed by an entry give the natural chain unless they say otherwise; changes in a name come on top.
UniProt P37231: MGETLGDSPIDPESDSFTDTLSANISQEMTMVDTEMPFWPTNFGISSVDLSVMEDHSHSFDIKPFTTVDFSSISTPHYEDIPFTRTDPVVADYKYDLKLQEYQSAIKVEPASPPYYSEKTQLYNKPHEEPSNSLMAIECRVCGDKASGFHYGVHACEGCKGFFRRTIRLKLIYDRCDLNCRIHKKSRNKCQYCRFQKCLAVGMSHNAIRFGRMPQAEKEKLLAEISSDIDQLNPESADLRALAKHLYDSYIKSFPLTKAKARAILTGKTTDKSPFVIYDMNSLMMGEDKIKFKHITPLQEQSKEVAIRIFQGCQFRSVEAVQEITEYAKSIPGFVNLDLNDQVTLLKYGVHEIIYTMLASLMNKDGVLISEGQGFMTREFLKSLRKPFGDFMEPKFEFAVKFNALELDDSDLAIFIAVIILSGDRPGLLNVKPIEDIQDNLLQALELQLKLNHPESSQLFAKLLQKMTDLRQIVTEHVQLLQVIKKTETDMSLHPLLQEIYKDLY

The target of test [1] is T1, Retinoic acid receptor RXR-alpha (Homo sapiens) (UniProt P19793).
T1 sequence (whole entry): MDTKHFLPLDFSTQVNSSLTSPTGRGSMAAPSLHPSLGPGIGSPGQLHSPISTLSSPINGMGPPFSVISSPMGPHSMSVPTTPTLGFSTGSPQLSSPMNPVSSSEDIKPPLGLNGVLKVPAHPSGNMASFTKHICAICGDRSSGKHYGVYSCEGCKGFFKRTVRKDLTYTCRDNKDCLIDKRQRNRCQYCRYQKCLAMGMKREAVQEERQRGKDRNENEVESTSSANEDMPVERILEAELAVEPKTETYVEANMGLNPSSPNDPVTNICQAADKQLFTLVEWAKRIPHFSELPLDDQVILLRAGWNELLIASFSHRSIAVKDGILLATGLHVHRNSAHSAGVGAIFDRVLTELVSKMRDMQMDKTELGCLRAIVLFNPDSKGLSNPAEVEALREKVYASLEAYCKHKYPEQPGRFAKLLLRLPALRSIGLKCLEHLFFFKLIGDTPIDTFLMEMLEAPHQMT
In words: Agonist activity at recombinant human pFA-CMV fused RXRalpha LBD expressed in HEK293T cells transfected with pFR-luciferase plasmid and pRL-SV40 plasmid at 10 uM incubated for 14 to 16 hrs by dual glo luciferase reporter gene assay. Particulars: HEK-293T. The test is classed as cell-based. For orientation: Reporter assays use an easily measured gene product as a stand-in for the process of interest.

Test [2] concerns the target T1, Retinoic acid receptor RXR-alpha (Homo sapiens). In words: Agonist activity at recombinant human pFA-CMV fused RXRalpha LBD expressed in HEK293T cells transfected with pFR-luciferase plasmid and pRL-SV40 plasmid incubated for 14 to 16 hrs by dual glo luciferase reporter gene assay relative to control. The test is classed as cell-based. Particulars: HEK-293T.
Test [3] addresses T2, Peroxisome proliferator-activated receptor gamma (Homo sapiens, UniProt P37231). In words: Agonist activity at N-terminal GFP-fused PPARgamma LBD (unknown origin) assessed as biotin-labeled SRC-1 recruitment incubated for 2 hrs by HT-FRET assay relative to rosiglitazone.
The target in test [4] is T2, Peroxisome proliferator-activated receptor gamma. The experiment in a line: Agonist activity at N-terminal GFP-fused PPARgamma LBD (unknown origin) assessed as biotin-labeled CBP recruitment incubated for 2 hrs by HT-FRET assay relative to rosiglitazone.
The target is the same in test [5]. In words: Agonist activity at N-terminal GFP-fused PPARgamma LBD (unknown origin) assessed as biotin-labeled SRC-1 recruitment incubated for 2 hrs by HT-FRET assay.
Test [6] concerns the target T3, Retinoic acid receptor RXR-beta (Homo sapiens) (UniProt P28702).
T3 sequence (whole entry): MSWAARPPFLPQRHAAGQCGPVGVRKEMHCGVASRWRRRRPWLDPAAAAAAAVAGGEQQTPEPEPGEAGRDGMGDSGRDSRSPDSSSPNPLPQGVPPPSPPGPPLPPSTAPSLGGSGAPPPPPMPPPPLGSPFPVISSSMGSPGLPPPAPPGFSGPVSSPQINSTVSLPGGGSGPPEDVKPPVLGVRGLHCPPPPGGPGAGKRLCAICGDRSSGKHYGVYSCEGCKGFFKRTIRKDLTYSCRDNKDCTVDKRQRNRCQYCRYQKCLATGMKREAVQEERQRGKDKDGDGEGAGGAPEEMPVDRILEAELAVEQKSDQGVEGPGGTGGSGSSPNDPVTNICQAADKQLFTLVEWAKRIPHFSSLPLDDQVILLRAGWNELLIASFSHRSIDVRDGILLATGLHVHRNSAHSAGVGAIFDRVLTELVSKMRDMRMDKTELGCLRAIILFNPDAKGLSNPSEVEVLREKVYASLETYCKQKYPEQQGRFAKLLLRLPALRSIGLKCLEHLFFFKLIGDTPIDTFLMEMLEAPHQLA
The experiment in a line: Agonist activity at recombinant human pFA-CMV fused RXRbeta LBD expressed in HEK293T cells transfected with pFR-luciferase plasmid and pRL-SV40 plasmid at 10 uM incubated for 14 to 16 hrs by dual glo luciferase reporter gene assay. The class given is cell-based. Particulars: HEK-293T.

Test [7] has as its target T2, Peroxisome proliferator-activated receptor gamma. In words: Agonist activity at N-terminal GFP-fused PPARgamma LBD (unknown origin) assessed as biotin-labeled CBP recruitment incubated for 2 hrs by HT-FRET assay.
Test [8] has as its target T4, Retinoic acid receptor RXR-gamma (Homo sapiens) (UniProt P48443).
T4 sequence (whole entry): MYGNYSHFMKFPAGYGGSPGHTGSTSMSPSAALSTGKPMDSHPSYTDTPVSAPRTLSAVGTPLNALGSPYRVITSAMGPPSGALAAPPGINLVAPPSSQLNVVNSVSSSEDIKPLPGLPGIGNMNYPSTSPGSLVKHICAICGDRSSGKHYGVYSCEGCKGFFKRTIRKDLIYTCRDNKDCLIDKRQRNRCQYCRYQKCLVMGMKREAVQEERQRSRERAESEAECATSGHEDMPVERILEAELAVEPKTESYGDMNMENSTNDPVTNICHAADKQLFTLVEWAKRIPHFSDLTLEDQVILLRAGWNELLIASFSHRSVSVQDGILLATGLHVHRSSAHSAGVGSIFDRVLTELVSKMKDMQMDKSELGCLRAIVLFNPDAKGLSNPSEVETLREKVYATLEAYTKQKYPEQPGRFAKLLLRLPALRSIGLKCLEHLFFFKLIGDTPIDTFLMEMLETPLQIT
In words: Agonist activity at recombinant human pFA-CMV fused RXRgamma LBD expressed in HEK293T cells transfected with pFR-luciferase plasmid and pRL-SV40 plasmid at 10 uM incubated for 14 to 16 hrs by dual glo luciferase reporter gene assay. Particulars: HEK-293T. The class given is cell-based.

The structures appear in SMILES notation. The source made the active and inactive calls. The calls are words filed in the database; no cut-off is given here.

In the case of `O=C(O)Cc1cc(I)c(Oc2ccc(O)c(I)c2)c(I)c1` [TIRATRICOL], the result in test [1], in test [3], in test [4], in test [5], in test [6] and in test [7] was Active. Moreover, in test [8], the outcome was Active. Moreover, the fold change (FC) in test [2] was determined as 13.
